{"sequences": {"note": "Protein sequences, listed by entry. Tags and fused reporters are not part of them.", "UniProt D9U2B9, entry or part of it": "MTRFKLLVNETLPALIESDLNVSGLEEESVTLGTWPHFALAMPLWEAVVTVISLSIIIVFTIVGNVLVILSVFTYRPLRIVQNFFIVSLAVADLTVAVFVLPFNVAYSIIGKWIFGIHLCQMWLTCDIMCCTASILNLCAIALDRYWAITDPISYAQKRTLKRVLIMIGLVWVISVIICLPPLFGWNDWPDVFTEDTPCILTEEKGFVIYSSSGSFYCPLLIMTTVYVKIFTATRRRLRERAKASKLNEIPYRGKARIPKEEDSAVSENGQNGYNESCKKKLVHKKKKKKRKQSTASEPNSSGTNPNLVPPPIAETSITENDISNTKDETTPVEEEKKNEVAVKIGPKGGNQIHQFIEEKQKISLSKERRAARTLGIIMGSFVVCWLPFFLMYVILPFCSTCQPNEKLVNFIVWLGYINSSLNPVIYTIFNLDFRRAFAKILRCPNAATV"}, "source": "paper PMC4211885", "about": "“Characterization of a Prawn OA/TA Receptor in Xenopus Oocytes Suggests Functional Selectivity between Octopamine and Tyramine” (PLoS ONE, 2014)", "target": "OA/TAMac receptor (Macrobrachium rosenbergii, UniProt D9U2B9)", "experiment": "Antagonist block of ID evoked by 50 µM octopamine in OA/TAMac-injected oocytes", "assay_type": "cell-based", "settings": "100 µM antagonist with 50 µM octopamine", "experimental": "Recordings were performed 1–3 days post-injection at room temperature (20–22°C). Currents were recorded under two-electrode voltage clamp using an Axoclamp 900a amplifier (Molecular Devices LLC, CA USA). A digidata 1440a analog to digital converter was used in conjunction with pCLAMP 10 software (Molecular Devices) for data acquisition and to generate voltage commands. For each step protocol or chemical application data were typically sampled at 5 KHz and filtered digitally at 1 KHz. For the duration of each experiment the current was also continuously sampled at 1 kHz using a separate minidigi 1A digitizer (Molecular Devices). Glass microelectrodes were pulled from filamented 1.2 mm thin wall borosilicate glass (World Precision Instruments, Sarasota, FL) using a Sutter Instruments P-97 puller. They were filled with 3 M KCl and had resistances of 0.8–2.0 MΩ. A silver chloride pellet immersed in 3 M KCl and connected to the bath via a 3% agar bridge made with 3 M KCl was used as the reference electrode.\nIn experiments where more than three drugs or concentrations were tested a precisely controlled 30 s perfusion-switch was used. Up to eight channels were connected to the bath via an 8-way manifold. There was an approximately 6–7 s delay for solutions to traverse the dead volume between the manifold and the bath.", "data": [{"smiles": "CN1CCN2c3ccccc3Cc3ccccc3C2C1", "note": "(stereo not shown) [mianserin]", "values": [{"measurement": "Block of octopamine-evoked ID at highest concentration", "result": "incomplete block"}]}]}
